The list shows a part of the results, in another mix than the full data. Active and inactive are the calls of the source.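 The calls were made as follows: active = survival measured by cellular ATP above 50% at 15 µg/ml in the first screen; inactive = the rest.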
Test: protection against thapsigargin ER stress killing – CSM14.1 cells, ATP luminescence, primary screen (AID 1010);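 also: cell death triggered by about 15 µM thapsigargin; ATP read 24 h after thapsigargin was added; plate controls were thapsigargin with DMSO for no effect and DMSO without thapsigargin for full effect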
Conditions: CSM14.1 thapsigargin ER stress survival, hits give high values, screened at 15 µg/mL (by protocol)

SMILES	relative survival (cellular ATP)
Cc1ccc(SC(NC(=O)c2ccccc2)C(Cl)Cl)cc1 (stereo not given)	inactive: 8.4%
Cc1cc(C)nc(SC(NC(=O)c2ccccc2)C(Cl)(Cl)Cl)n1 (stereo not given)	inactive: 15%
O=C(NC(SC1=NCCS1)C(Cl)(Cl)Cl)c1ccc(I)cc1 (stereo not given)	inactive: 0.7%
O=C(CF)NC(Sc1ccc(Cl)cc1)C(Cl)(Cl)Cl (stereo not given)	inactive: 4.8%
COC(=O)c1ccc(OP(=O)(Oc2ccc(Cl)cc2C)SCC(C)C)cc1 (stereo not given)	inactive: -8.5%
CCCCOP(=O)(OCCCC)SC	inactive: 8.1%
COC(=O)NC(Sc1ccc(Cl)cc1)C(Cl)Cl (stereo not given)	inactive: 3.8%
CCOC(=O)NC(Sc1nc2ccccc2o1)C(Cl)(Cl)Cl (stereo not given)	inactive: -0.5%
O=CNC(Sc1nc2ccccc2o1)C(Cl)(Cl)Cl (stereo not given)	inactive: 2.3%
CCCCSP(=O)(OCC(C)C)OCC(C)C	inactive: 11.4%

Reference: PubChem BioAssay AID1010 (Sanford-Burnham Center for Chemical Genomics, 2008)
